Laboratory results published in ChEMBL document CHEMBL3822434 (Bioorg Med Chem, 2016).

Target: T1, Mitogen-activated protein kinase kinase kinase 7 (Homo sapiens, UniProt O43318)
T1 sequence (O43318 whole entry): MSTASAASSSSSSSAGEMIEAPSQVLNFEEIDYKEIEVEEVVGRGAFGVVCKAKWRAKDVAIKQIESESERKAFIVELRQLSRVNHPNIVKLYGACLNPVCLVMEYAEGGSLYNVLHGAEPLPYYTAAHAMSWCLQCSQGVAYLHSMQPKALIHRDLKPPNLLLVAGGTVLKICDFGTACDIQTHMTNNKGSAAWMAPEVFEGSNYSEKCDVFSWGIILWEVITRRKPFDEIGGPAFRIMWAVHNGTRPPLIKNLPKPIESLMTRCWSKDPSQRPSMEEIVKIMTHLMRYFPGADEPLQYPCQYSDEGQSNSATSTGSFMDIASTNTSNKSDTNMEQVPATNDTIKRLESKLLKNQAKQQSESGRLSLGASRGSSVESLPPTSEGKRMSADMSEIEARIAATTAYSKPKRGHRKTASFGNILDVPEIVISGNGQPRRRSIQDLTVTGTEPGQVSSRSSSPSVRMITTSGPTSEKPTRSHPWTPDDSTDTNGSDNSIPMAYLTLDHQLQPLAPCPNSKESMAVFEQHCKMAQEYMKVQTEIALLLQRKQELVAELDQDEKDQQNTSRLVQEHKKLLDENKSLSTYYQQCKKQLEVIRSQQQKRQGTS
Test: Inhibition of full length TAK1 (unknown origin) fused with TAB1 using biotin-MKK6 as substrate by AlphaScreen assay

For `COc1cc(O)c2c(c1)/C=C/C[C@H](O)[C@H](O)C(=O)/C=C\C[C@H](C)OC2=O`, which IC50 is on record?
Its IC50 is 9 nM.
